Assay results as given in PMC8203801, “Albumin in patients with liver disease shows an altered conformation” (Communications Biology, 2021).

What follows are substances tested against HSA (Homo sapiens, UniProt P02768) (assay: Dansylsarcosine (DS) binding to prepared HSA, fluorescence titration). Details: dansylsarcosine (DS) binding to the HSA sample prepared from plasma of that patient (P) or healthy control (C); HSA diluted to 10 µmol/L in PBS, 20 min at 37 °C, fluorescence 355/460 nm.
With “C1: HSA prepared from plasma of healthy control person C1” the Kd was 18 µM. For “P5: HSA prepared from plasma of patient P5 with chronic liver failure”, the Kd was 28 µM. Work on “P1: HSA prepared from plasma of patient P1 with chronic liver failure” yielded a Kd of 28 µM. “P4: HSA prepared from plasma of patient P4 with chronic liver failure” showed a Kd of 22 µM. Work on “C2: HSA prepared from plasma of healthy control person C2” yielded a Kd of 12 µM. Substance “P9: HSA prepared from plasma of patient P9 with chronic liver failure” has a Kd of 13 µM. “P6: HSA prepared from plasma of patient P6 with chronic liver failure” was tested, and the Kd was 17 µM. In the case of “P2: HSA prepared from plasma of patient P2 with chronic liver failure”, the Kd is reported as 15 µM. For “P3: HSA prepared from plasma of patient P3 with chronic liver failure”, the Kd was 25 µM. With “P7: HSA prepared from plasma of patient P7 with chronic liver failure” the Kd was 20 µM.
